## Membrane permeability of cyclic peptides

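The data file gives no further conditions (lipid, pH, time, direction or concentration), and values from different papers need not be comparable. Other peptides of the study may be missing here. Peptides that the database sets to -10, its floor, are left out.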

PAMPA measures passive passage through an artificial lipid membrane. Permeability is in 10^-6 cm/s, converted from the database's log10 values; higher is more permeable.

For CC(C)C[C@@H]1NC(=O)[C@@H](CC(C)C)NC(=O)[C@H](C)NC(=O)[C@@H]2CCCN2C(=O)[C@H](Cc2ccccc2)NC(=O)CN(Cc2ccccc2)C(=O)[C@@H]2CCCN2C1=O the data give PAMPA 2.6 × 10^-6 cm/s. The entry for CC(C)C[C@@H]1C(=O)N2CCC[C@H]2C(=O)N[C@H](CC(C)C)C(=O)N[C@@H](Cc2ccccc2)C(=O)N2CCC[C@H]2C(=O)N(C)[C@@H](C)C(=O)N(Cc2ccccc2)CC(=O)N1C lists PAMPA 3 × 10^-6 cm/s. The entry for CC(C)C[C@H]1NC(=O)[C@H](CC(C)C)N(C)C(=O)[C@H](C)N(C)C(=O)[C@H]2CCCN2C(=O)[C@H](Cc2ccccc2)NC(=O)CN(Cc2ccccc2)C(=O)[C@H]2CCCN2C1=O lists PAMPA 3.1 × 10^-6 cm/s. The entry for CC(C)C[C@@H]1NC(=O)CN(Cc2ccccc2)C(=O)[C@H](C)N(C)C(=O)[C@H]2CCCN2C(=O)[C@H](Cc2ccccc2)NC(=O)[C@H](CC(C)C)N(C)C(=O)[C@@H]2CCCN2C1=O lists PAMPA 2.6 × 10^-6 cm/s. CC(C)C[C@@H]1NC(=O)[C@@H]2CCCN2C(=O)CN(Cc2ccccc2)C(=O)[C@H](CC(C)C)N(C)C(=O)[C@@H](C)N(C)C(=O)[C@@H]2CCCN2C(=O)[C@H](Cc2ccccc2)NC1=O has PAMPA 2.1 × 10^-6 cm/s. CC(C)C[C@@H]1NC(=O)[C@@H](C)NC(=O)[C@H]2CCCN2C(=O)[C@H](Cc2ccccc2)NC(=O)CN(Cc2ccccc2)C(=O)[C@@H]2CCCN2C(=O)[C@@H](CC(C)C)NC1=O is reported with PAMPA 0.56 × 10^-6 cm/s.

Listed for CC(C)C[C@@H]1NC(=O)[C@@H](CC(C)C)NC(=O)[C@@H](C)N(C)C(=O)[C@H](Cc2ccccc2)NC(=O)[C@@H](CC(C)C)N(C)C(=O)[C@H]2CCCN2C1=O: PAMPA 6.6 × 10^-6 cm/s. CC(C)C[C@H]1NC(=O)[C@H]2CCCN2C(=O)[C@@H](CC(C)C)NC(=O)[C@@H](CC(C)C)NC(=O)[C@H](C)N(C)C(=O)[C@H](Cc2ccccc2)NC1=O has PAMPA 8.7 × 10^-6 cm/s. The entry for CC(C)C[C@H]1NC(=O)[C@@H]2CCCN2C(=O)CN(Cc2ccccc2)C(=O)[C@@H](CC(C)C)NC(=O)[C@H](C)NC(=O)[C@@H]2CCCN2C(=O)[C@H](Cc2ccccc2)NC1=O lists PAMPA 1.1 × 10^-6 cm/s. CCCN1CC(=O)N[C@H](CC(C)C)C(=O)N[C@@H](CC(C)C)C(=O)N2CCC[C@H]2C(=O)N[C@H](CC(C)C)C(=O)N[C@@H](Cc2ccccc2)C(=O)N2CCC[C@@H]2C1=O has PAMPA 0.55 × 10^-6 cm/s. Listed for CC(C)C[C@@H]1NC(=O)[C@@H](CC(C)C)N(C)C(=O)[C@H](C)N(C)C(=O)[C@H](Cc2ccccc2)NC(=O)CN(Cc2ccccc2)C(=O)[C@@H]2CCCN2C1=O: PAMPA 11 × 10^-6 cm/s. The entry for CC(C)C[C@@H]1C(=O)N2CCC[C@H]2C(=O)N(C)[C@@H](CC(C)C)C(=O)N[C@@H](Cc2ccccc2)C(=O)N2CCC[C@H]2C(=O)N(C)[C@@H](C)C(=O)N[C@H](CC(C)C)C(=O)N1C lists PAMPA 8.7 × 10^-6 cm/s.

CCCN1CC(=O)N(C)[C@H](CC(C)C)C(=O)N(C)[C@H](CC(C)C)C(=O)N2CCC[C@@H]2C(=O)N[C@H](CC(C)C)C(=O)N[C@@H](Cc2ccccc2)C(=O)N2CCC[C@H]2C1=O is reported with PAMPA 1.3 × 10^-6 cm/s. CC(C)C[C@H]1NC(=O)CN(Cc2ccccc2)C(=O)[C@H](C)N(C)C(=O)[C@H]2CCCN2C(=O)[C@H](Cc2ccccc2)NC(=O)[C@H](CC(C)C)N(C)C(=O)[C@@H]2CCCN2C1=O is reported with PAMPA 5.1 × 10^-6 cm/s. The entry for CC(C)C[C@@H]1C(=O)N[C@@H](Cc2ccccc2)CC(=O)N2CCC[C@@H]2C(=O)N[C@H](CC(C)C)C(=O)N[C@@H](Cc2ccccc2)C(=O)N2CCC[C@H]2C(=O)N[C@@H](Cc2ccccc2)CC(=O)N1C lists PAMPA 2 × 10^-6 cm/s. CC(C)C[C@H]1C(=O)N[C@@H](Cc2ccccc2)CC(=O)N2CCC[C@H]2C(=O)N(C)[C@@H](CC(C)C)C(=O)N[C@@H](Cc2ccccc2)C(=O)N(C)[C@@H](C)C(=O)N1C has PAMPA 29 × 10^-6 cm/s. Listed for CC(C)C[C@@H]1NC(=O)[C@H](C)NC(=O)[C@@H]2CCCN2C(=O)[C@H](Cc2ccccc2)NC(=O)CN(Cc2ccccc2)C(=O)[C@H]2CCCN2C(=O)[C@@H](CC(C)C)NC1=O: PAMPA 0.076 × 10^-6 cm/s.

The 2 lowest values of PAMPA among the entries above:

structure (SMILES)	PAMPA (10^-6 cm/s)
CC(C)C[C@@H]1NC(=O)[C@H](C)NC(=O)[C@@H]2CCCN2C(=O)[C@H](Cc2ccccc2)NC(=O)CN(Cc2ccccc2)C(=O)[C@H]2CCCN2C(=O)[C@@H](CC(C)C)NC1=O	0.076
CCCN1CC(=O)N[C@H](CC(C)C)C(=O)N[C@@H](CC(C)C)C(=O)N2CCC[C@H]2C(=O)N[C@H](CC(C)C)C(=O)N[C@@H](Cc2ccccc2)C(=O)N2CCC[C@@H]2C1=O	0.55

Collected by the curators of CycPeptMPDB (Li et al. 2023) from Townsend et al. 2020, doi:10.26434/chemrxiv.13335941.v1.